# Results as given in publication PMC5934680, “A new class of antibacterials, the imidazopyrazinones, reveal structural transitions involved in DNA gyrase poisoning and mechanisms of resistance” (Nucleic Acids Research, 2018).
# Protein sequences, listed by entry. Tags and fused reporters are not part of them.
# UniProt P0AES4, whole entry: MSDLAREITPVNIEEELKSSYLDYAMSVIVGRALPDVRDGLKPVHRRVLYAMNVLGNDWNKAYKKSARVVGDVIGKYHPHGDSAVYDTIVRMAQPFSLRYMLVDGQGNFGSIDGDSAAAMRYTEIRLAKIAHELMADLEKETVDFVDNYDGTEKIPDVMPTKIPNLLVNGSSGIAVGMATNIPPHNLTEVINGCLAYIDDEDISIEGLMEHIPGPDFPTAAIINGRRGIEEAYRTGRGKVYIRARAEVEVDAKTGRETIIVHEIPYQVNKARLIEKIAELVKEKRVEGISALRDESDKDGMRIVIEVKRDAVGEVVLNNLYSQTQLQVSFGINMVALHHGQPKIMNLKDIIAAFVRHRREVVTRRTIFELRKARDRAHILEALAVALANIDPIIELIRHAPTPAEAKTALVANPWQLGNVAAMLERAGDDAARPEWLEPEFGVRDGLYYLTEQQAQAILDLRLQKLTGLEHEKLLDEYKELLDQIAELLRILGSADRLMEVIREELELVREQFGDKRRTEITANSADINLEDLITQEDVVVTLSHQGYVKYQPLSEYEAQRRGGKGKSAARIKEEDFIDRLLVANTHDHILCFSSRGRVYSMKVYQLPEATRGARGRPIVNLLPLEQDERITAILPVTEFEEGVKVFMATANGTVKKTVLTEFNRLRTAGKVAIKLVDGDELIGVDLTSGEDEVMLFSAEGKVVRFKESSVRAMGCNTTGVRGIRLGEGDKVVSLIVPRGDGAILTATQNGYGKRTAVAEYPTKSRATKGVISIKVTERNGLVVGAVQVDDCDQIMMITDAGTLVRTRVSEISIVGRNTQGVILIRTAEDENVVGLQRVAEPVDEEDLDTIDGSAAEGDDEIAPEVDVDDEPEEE
# Target: wild-type E. coli DNA gyrase (Escherichia coli, UniProt P0AES4+P0AES6)
# Experiment: biochemical
# Description: Supercoiling reactions were carried out as described previously ([24]) with minor adjustments. A total of 500 ng of relaxed pBR322 plasmid was used as a substrate for each 30 μl reaction. The amount of DNA gyrase (A2B2) added was normalized by testing various dilutions of the stock (A2B2 containing 0.5 mg/ml of each subunit) without compound. The amount sufficient to supercoil 50% of the substrate was then used for the testing of compounds. See Supplementary Figure S1 for details. This ensured a limiting amount of enzyme for every mutant tested. The individual gyrase subunits were either prepared in the lab as described previously ([25]) or purchased from Inspiralis.
smiles,measurement,value
O=c1c2nccn2c2cc(F)c(-c3ccncc3)cc2n1C1CC1 [t3],IC50,1600 nM
